## Yeast mating assay B: variants of the scFv Ab-14

All variants were tested on one target, the spike HR2 peptide PDVDLGDISGINAS (SARS-CoV-2).

The variants keep the heavy chain, the linker and the frameworks of Ab-14 (scFv order VH, the linker GGGGSGGGGSGGGGS, VL).
VH: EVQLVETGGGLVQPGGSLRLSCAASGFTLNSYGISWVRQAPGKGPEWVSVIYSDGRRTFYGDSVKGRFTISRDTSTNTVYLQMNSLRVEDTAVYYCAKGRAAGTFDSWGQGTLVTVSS
VL: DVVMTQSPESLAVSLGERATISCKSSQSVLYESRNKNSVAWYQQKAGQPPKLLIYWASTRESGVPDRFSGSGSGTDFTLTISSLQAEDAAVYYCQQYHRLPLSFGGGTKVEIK

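Phage display of a naive human antibody library on the peptide gave the parent. Designed CDR sequences, proposed from the first random library and measured here. Their group label is 14L_Ctrl (Ctrl: baseline library sampled from a position-specific scoring matrix, with some repeated check sequences). Affinity was read by AlphaSeq, a pooled yeast mating assay with surface-displayed partners. Mating (16 h, 30 °C) was followed by selection of diploids and sequencing of their barcodes. The ratio of observed to expected reads was calibrated, replicate by replicate, on BCL2-family standards whose Kd was known from biolayer interferometry. Mating was done six times.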

Variants are written as CDR1, CDR2 and CDR3 of the light chain (limits as in the source). Parent: KSSQSVLYESRNKNSVA, WASTRES, QQYHRLPLS. Values are log10 of the apparent Kd in nM; lower means stronger binding. "ND" marks a missing value. The strain was present, yet no cells mated with the target were sequenced in that replicate, which points to weak or no binding. The authors' rule: three or more of the six replicates give a measured affinity, fewer mean a poor binder. A sequence measured in both rounds can read differently, since the two assays cover different ranges. Of ten entries with the parent sequence, four were seen in most replicates (averages 0.34 to 2.37), three in one and three in none, so single entries are noisy. Empty control strains, which show no peptide, gave a signal in 4% of pairings with all light chain designs; the median was 2.64 and 95% of these signals were weaker than 1.59. No background was subtracted. The control count says in how many pairings with the empty strains this scFv gave a signal, with their mean in brackets.

CDR-L1 | CDR-L2 | CDR-L3 | log10 Kd (nM) by replicate | control signals
KSSQSVLYESRNKNSVA | RGSTRES | QQCHRLPLS | ND / ND / ND / ND / ND / ND | 0/18
KSSMSVLYESRNKNSVA | MASTRES | QQYHYLPES | ND / ND / ND / ND / ND / ND | 0/18
KLSQSMLYESRNKNNNA | WASTRES | QQYHRLPLS | ND / ND / ND / ND / ND / ND | 0/18
KSIQSVLYESNNKNSVA | WASTRES | QQYHRLPLS | ND / ND / 1.78 / 1.53 / ND / ND | 0/18
KSSQSVLYESRNKNSVA | MASTREN | QQYARLPLS | 0.21 / -0.06 / -0.08 / -0.35 / -0.32 / 0.05 | 0/18
KSHWSVEYESRNKNSVA | GASTRES | QQYHQLILS | -0.33 / 0.07 / -0.33 / -0.31 / -0.45 / -0.16 | 0/18
KFSNSVYMESRNKNSVA | WASTRES | QQYHRLPLS | 0.57 / 0.37 / 0.07 / 0.46 / 0.18 / 0.69 | 0/18
KSSQSVLYESSLKNMVA | WASTRES | YQYHRLPLS | ND / ND / ND / ND / ND / ND | 0/18
KISQSVLYESRNKNSVA | WASTRSS | QQYHRLPLS | 0.77 / 0.36 / 0.20 / 0.17 / 0.34 / 0.40 | 0/18
KSSQSALYESRNKNSVA | WASTRES | QQYHRLPLS | ND / 2.24 / ND / 2.02 / 1.86 / ND | 0/18
KSSQGVLYESRNQNSLA | YASTRES | QQPHRLPLW | ND / ND / ND / ND / ND / ND | 0/18
KQSQSVLYESRNKNSVA | QASTRES | QQYHMLPLS | 1.27 / 1.20 / 1.29 / 0.68 / 0.68 / 0.79 | 0/18
KASQSVLYESRNKRPVA | HASTRES | QQYHRLPLS | 1.54 / 1.92 / 1.47 / ND / ND / 1.45 | 0/18
KISESVLYESRNKNSVA | WASTRES | QQYHDLPLS | ND / 2.49 / 1.38 / 2.53 / 2.62 / 2.12 | 0/18
KSSQSVLYESRNKNSVA | WASTRES | QWYHVLPLS | ND / ND / ND / ND / ND / ND | 0/18
KSSQSVLLEFRNKNSVA | WASTRVS | QQYHRLPLS | 2.20 / ND / ND / ND / ND / ND | 0/18
HSSQSVLHEINNSNSVA | WCTTRES | QQYHGLPLS | ND / ND / ND / ND / ND / ND | 1/18 (2.52)
RSPQSVRYESRNKNSVA | AANTRES | QQYHRLPLS | 0.35 / 0.21 / 0.46 / 0.24 / 0.12 / 0.07 | 0/18
KNSQSVLYEDRNKNSVA | WASTRES | QQYHRLPLS | ND / ND / ND / ND / 1.64 / 2.55 | 0/18
KSSSSVLYESENKNSVA | WASTRES | QQYHRLPLS | 1.30 / 1.60 / 1.18 / 1.13 / 1.11 / 2.19 | 1/18 (2.11)
KSSQKVLYESRVKNSVA | QASTRES | QQYHRLPLS | 0.96 / 0.53 / 0.45 / 0.37 / 0.50 / 0.55 | 0/18
KFSQSVLYESRNKNSVA | WASKRES | QQYHRLPLS | 1.16 / 1.58 / 1.07 / 1.94 / 0.85 / 1.93 | 0/18
KSMQAVLYEGRNKFSVA | WASTRES | QQYHRLPLS | ND / ND / ND / ND / ND / ND | 0/18
KSSQSVLYESSNKNSVA | RASTRES | QSYHRLPCS | ND / ND / ND / 3.39 / ND / ND | 2/18 (2.94)
KSSQSVLNESANKNSVA | WANTRES | QQYHWLPFS | ND / 3.09 / 2.94 / 4.16 / 2.88 / 3.25 | 2/18 (3.51)
KSSQPVLYESRNKNSVA | HAFTRFH | QQYHRLPLS | ND / ND / ND / ND / 2.13 / ND | 0/18
KVSQSKLYESRNKNSVA | QASTRES | QQQHRLPIS | ND / ND / ND / ND / ND / ND | 0/18
KSSQSVPQESRNTNSVA | WADRRES | CQYHRLILS | ND / ND / ND / ND / ND / ND | 0/18
KSSQSVLYESINKNSVA | EASTRES | QQYHRLPLS | 1.22 / 1.10 / 0.97 / 1.38 / 0.78 / 0.90 | 0/18
KLSQSVPTESNNKNSVA | WASTREQ | QQYHRLPLE | 1.43 / 1.11 / 1.00 / 1.11 / 0.89 / 1.34 | 1/18 (3.56)
KSSYSTLYESRNKNSVA | WASTRES | QQYKRLPLS | ND / ND / ND / ND / ND / 1.93 | 0/18
KSSQSVMNESRNKNSVA | DASTRES | QTYHRLPLS | 1.04 / 0.42 / 0.76 / 0.75 / 0.76 / 0.89 | 1/18 (3.30)
KSSQSVLYESRNKNSVA | AASIREI | QQYHRLPLS | 0.84 / 0.49 / 0.47 / 0.19 / 0.25 / 0.93 | 1/18 (1.21)
KSSQSALYESRNKNSVA | WASTRES | QQSHCLPLS | ND / ND / ND / ND / ND / ND | 0/18
KSDQSELAESRNKNSVA | WASCRES | QQYHRLPLS | 1.43 / 1.71 / 2.05 / 1.58 / 1.90 / 1.77 | 0/18
KESKSVLYESRNKNSVA | WASTRES | QQYSRLPLS | ND / ND / 2.81 / ND / ND / ND | 0/18
KSSQPVLYESRNKNSVA | WASTRLS | QQYHRLPLS | ND / 1.36 / 1.71 / ND / 2.25 / ND | 0/18
KSSQSVLALSRNKNSVA | WASTRES | QQYARMPLS | 1.97 / ND / 1.47 / 3.37 / 1.29 / ND | 1/18 (1.73)
KSQQSVLYESRNKNSVA | QASTRES | QQYHRLPLS | -0.12 / -0.31 / -0.16 / -0.20 / -0.27 / -0.09 | 1/18 (2.01)
KMSQSELYESRNKNSVA | WASTRES | QQYHRLPLS | 1.38 / 0.78 / 0.84 / 1.39 / 0.76 / 1.09 | 2/18 (2.65)
KSSQSVLYESRNKNSVA | WASTRMS | QQYNRLPLS | 0.71 / 0.89 / 1.52 / 1.53 / 1.71 / 1.09 | 0/18
KSSESWLYEWRNKNSVA | WASTRES | QQYHRLPLV | ND / ND / ND / ND / ND / 2.42 | 0/18
KSSQSPLYESRNKNSVA | WASTRES | QQYHRIPLS | ND / ND / ND / ND / ND / ND | 0/18
KVSQSYLYESRNKNSVA | WASTRES | QAYHRLPLS | 1.18 / 1.28 / 1.65 / 1.12 / 1.03 / 1.21 | 1/18 (3.15)

Picked from the list: the 4 lowest averages where every replicate gave a value.

CDR-L1 | CDR-L2 | CDR-L3 | log10 Kd (nM) by replicate | control signals
KSHWSVEYESRNKNSVA | GASTRES | QQYHQLILS | -0.33 / 0.07 / -0.33 / -0.31 / -0.45 / -0.16 | 0/18
KSQQSVLYESRNKNSVA | QASTRES | QQYHRLPLS | -0.12 / -0.31 / -0.16 / -0.20 / -0.27 / -0.09 | 1/18 (2.01)
KSSQSVLYESRNKNSVA | MASTREN | QQYARLPLS | 0.21 / -0.06 / -0.08 / -0.35 / -0.32 / 0.05 | 0/18
RSPQSVRYESRNKNSVA | AANTRES | QQYHRLPLS | 0.35 / 0.21 / 0.46 / 0.24 / 0.12 / 0.07 | 0/18

The measurements come from Li et al. 2023 (doi:10.1038/s41467-023-39022-2) through the FLAb antibody collection.